Laboratory results from publication PMC5118412 (Cell Discovery, 2016).

Protein sequences, listed by entry. Tags and fused reporters are not part of them. Residues count along the entry.
UniProt P43220, 24-463: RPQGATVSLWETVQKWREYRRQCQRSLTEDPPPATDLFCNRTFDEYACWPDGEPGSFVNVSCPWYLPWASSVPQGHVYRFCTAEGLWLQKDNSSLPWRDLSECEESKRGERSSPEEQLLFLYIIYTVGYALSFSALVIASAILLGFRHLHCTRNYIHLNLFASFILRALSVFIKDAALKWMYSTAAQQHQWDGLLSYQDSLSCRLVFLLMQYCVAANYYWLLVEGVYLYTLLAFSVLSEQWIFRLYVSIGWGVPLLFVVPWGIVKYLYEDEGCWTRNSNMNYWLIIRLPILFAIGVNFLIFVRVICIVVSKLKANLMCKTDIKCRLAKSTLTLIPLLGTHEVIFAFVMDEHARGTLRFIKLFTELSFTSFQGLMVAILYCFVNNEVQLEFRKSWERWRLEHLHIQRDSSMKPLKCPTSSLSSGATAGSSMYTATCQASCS

Target: T1, human GLP-1R (Homo sapiens, UniProt P43220)
T1 construct: expressed in transfected cells
Experiment: cAMP CRE-NanoLuc reporter assay, stable GLP-1R/NlucP-293 cells, peptide dose response
Type: cell-based
Conditions: AD293-GLP-1R stable cells, pNL-NlucP-CRE; peptide 30 μM to 0.1 pM, 4 h; two independent experiments, each in triplicate; read-out: EC50 (cAMP signal)

With `CC[C@H](C)[C@H](NC(=O)[C@H](Cc1ccccc1)NC(=O)[C@H](CCC(=O)O)NC(=O)[C@H](CCCCN)NC(=O)[C@H](C)NC(=O)[C@H](C)NC(=O)[C@H](CCC(N)=O)NC(=O)CNC(=O)[C@H](CCC(=O)O)NC(=O)[C@H](CC(C)C)NC(=O)[C@H](Cc1ccc(O)cc1)NC(=O)[C@H](CO)NC(=O)[C@H](CO)NC(=O)[C@@H](NC(=O)[C@H](CC(=O)O)NC(=O)[C@H](CO)NC(=O)[C@@H](NC(=O)[C@H](Cc1ccccc1)NC(=O)[C@@H](NC(=O)CNC(=O)[C@@H](N)CCC(=O)O)[C@@H](C)O)[C@@H](C)O)C(C)C)C(=O)N[C@@H](C)C(=O)N[C@@H](Cc1c[nH]c2ccccc12)C(=O)N[C@@H](CC(C)C)C(=O)N[C@H](C(=O)N[C@@H](CCCCN)C(=O)NCC(=O)N[C@@H](CCCNC(=N)N)C(=O)NCC(=O)O)C(C)C` [GLP-1(9-37)] the EC50 was 0.262 µM.
